# Experimental data from patent publication US10206905B2, “Use of composition for preparing a medicament for treatment of amyotrophic lateral sclerosis” (priority 2015, dated 2019).
# Tested on: SOD1-G93A mice
# Experiment: Onset time and survival time of SOD1-G93A mice (Example 3)
# Format: in vivo
# Protocol: The transgenic mice with amyotrophic lateral sclerosis (B 6 SJL-Tg(SOD1*G93A)1Gur/JNj u, hereinafter referred to as SOD1-G93 A mice) and the wild-type control mice were purchased from Nanjing Biomedical Research Institute of Nanjing University.
# Experimental animals were divided into 6 groups, the wild control (Wt) group, the model (Tg) group, the positive drug Riluzole (Tg-Riluzole) group, the positive drugedaravonel5mg/kg (Tg-E15) group, the composition 5 mg/kg (Tg-05 group, 15 mg/kg (Tg-C15) group, respectively. The mass ratio of edaravone to natural borneol in the composition group was 4:1.
# Dosing to animals was initiated from the age of 10 weeks, keeping on the whole survival period. Each dosage of the composition and the positive drug edaravone group was dosed by intraperitoneal injection once a day. The drug in the positive drug Riluzole group was dissolved in drinking water, 100 μg/ml. Animals in the wild control group and the model group were given the corresponding volumes of solvents by intraperitoneal injection.
# From the age of 10 weeks, the body weight, the motor function (motor ability score, rotarod test) of animals had been monitored once a week. Two consecutive rod droppings in the animal rotarod test had been considered as the sign of the onset of animal diseases. […]
structure (smiles),measurement,setting,value
Nc1nc2ccc(OC(F)(F)F)cc2s1 [Riluzole],Survival Time,"100 μg/ml in drinking water from age 10 weeks, mean ± standard error",155.8 ± 8.3*** d
same,Survival Time Extension,"100 μg/ml in drinking water, versus SOD1-G93A control",15.6 days

# Marks after values point to notes of the source that are not given here.
